Screens as filed in PubChem.
CAL PDZ FP-1: inhibitors of human CAL PDZ peptide binding. Q9HD26. inhibition, % at 20 µM. purified CAL PDZ, TMR-peptide fluorescence polarization, 1 h. actives 0.02% (n = 330,000);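 active = highest replicate inhibition of at least 40%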
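Control set: unlabelled peptide and DMSO controls / Material: purified CerCALP PDZ construct / Timing: 1 h incubation at room temperature before polarization reading / Doses: 20 µM, one dose / Detection: fluorescence polarization (mP)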
CDK5 inh: blocks human CDK5/p35 kinase activity. actives 0.01% (n = 330,000). inhibition, % at 10 µM. Recombinant CDK5/p35, ADP-Glo luminescence, 60 min;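 active = highest replicate inhibition of at least 50% and at least 75% of replicates reaching 50%; inconclusive = only one of the two criteria met; inactive = both criteria failed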
Dyrk1A ADPGlo: inhibitors of rat Dyrk1A kinase; ADP-Glo luminescence, NFATc1 peptide; actives 0.43% (n = 310,000); Q63470; inhibition, % at 12.5 µM; in the data active = inhibition above about 50%
dFosB activator: activators of mouse delta FosB homodimer. actives 0.99% (n = 340,000). AID 493131. purified delta FosB, TAMRA-CDK5 oligo fluorescence polarization; percent of positive-control signal above neutral wells. activation, % at 25 µM;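 active = mean activation above about 17%, with every replicate also reaching it, limit read from the data, passing the limit was not always enough; inconclusive = only one of the two conditions met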
CAL PDZ FP-2: blocks peptide binding to the human CAL PDZ domain; AID 602252; inhibition, % at 24.9 µM; purified CAL PDZ, TMR-peptide fluorescence polarization, 1 h; Q9HD26; actives 0.92% (n = 300,000);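 active = mean inhibition of at least 30% with at least half of replicates also reaching 30%; inconclusive = no clear call, values can overlap the other calls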
Yeast UUG start: modulators of start codon recognition fidelity in yeast; AID 602363; hit rate 0.13% among 350,000; activity score, % at 18.7 µM; S. cerevisiae UUG-firefly luciferase reporter, luminescence/redox ratio;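 active = replicate mean at a twofold rise or more, about +100% in these data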;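 note: firefly luciferase made from a UUG start codon reports start codon fidelity; reporter light over untreated wells divided by growth signal over untreated wells; some hits fall short of that in this replicate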
A number is an active result. Rows were chosen to be rich in hits. Some 1.7% of all compounds tested hit in one or more screens of this group.

For C[C@@H]1CN([C@H](C)CO)C(=O)c2cc(C#CC3(O)CCCC3)cnc2O[C@H]1CN(C)Cc1ccccc1 the results were Yeast UUG start inactive.
Screening CCCC(=O)Nc1ccc2c(c1)C(=O)N(C)C[C@@H](OC)[C@@H](C)CN(Cc1ccccc1F)[C@H](C)CO2 returned Yeast UUG start inactive.
Screening CCN1/C(=C/C=C/c2oc3ccc(-c4ccccc4)cc3[n+]2CC)Oc2ccc(-c3ccccc3)cc21 returned CAL PDZ FP-1 inactive, CDK5 inh inactive, Dyrk1A ADPGlo inactive, dFosB activator inactive, CAL PDZ FP-2 36 and Yeast UUG start inactive.
`COCC(=O)NC[C@@H]1[C@@H](c2ccc(-c3ccccc3)cc2)[C@@H](CO)N1C(C)=O` gave Yeast UUG start inactive.
Screening Cc1ccc(S(=O)(=O)NCCN(CCNS(=O)(=O)c2ccc(C)cc2)S(C)(=O)=O)cc1 returned CAL PDZ FP-1 inactive, CDK5 inh inactive, Dyrk1A ADPGlo inactive, dFosB activator inactive, CAL PDZ FP-2 52 and Yeast UUG start inactive.
For Cc1ccc(S(=O)(=O)NCCCCCCNS(=O)(=O)c2ccc(C)cc2)cc1 the results were Yeast UUG start inactive.
CC(=O)Nc1ccc(Nc2nc(-c3cc4ccccc4oc3=O)cs2)cc1 was read as CAL PDZ FP-1 inactive, CDK5 inh inactive, dFosB activator inactive, CAL PDZ FP-2 inactive and Yeast UUG start inactive.
Nc1ccc(Nc2nc(-c3cc4ccccc4oc3=O)cs2)cc1 was read as CAL PDZ FP-1 inactive, CDK5 inh inactive, Dyrk1A ADPGlo inactive, dFosB activator inactive, CAL PDZ FP-2 48 and Yeast UUG start inactive.
`Cc1cc(C)c(S(=O)(=O)NCc2ccc3c(c2)OCO3)cc1C` gave CAL PDZ FP-1 inactive, CDK5 inh inactive, dFosB activator inactive, CAL PDZ FP-2 inactive and Yeast UUG start inactive.
For Cc1cc(C)c(S(=O)(=O)NCc2ccc3c(c2)OCO3)c(C)c1 the results were CDK5 inh inactive, Dyrk1A ADPGlo inactive, dFosB activator inactive, CAL PDZ FP-2 69 and Yeast UUG start inactive.
Cc1ccc(S(=O)(=O)N(C)C[C@H]2OCCCC[C@H](C)Oc3ccc(NS(C)(=O)=O)cc3C(=O)N([C@H](C)CO)C[C@@H]2C)cc1 was read as Yeast UUG start inactive.
c1ccc(-c2cnc(CSc3nnc4ccccn34)o2)cc1 was read as CAL PDZ FP-1 inactive, CDK5 inh inactive, Dyrk1A ADPGlo inactive, dFosB activator inactive, CAL PDZ FP-2 57 and Yeast UUG start inactive.
For CCN(CC)CCOC(=O)c1ccc(N/C=C(/C#N)c2nc(-c3ccc(OC)cc3)cs2)cc1 the results were CAL PDZ FP-1 inactive, CDK5 inh inactive, dFosB activator inconclusive and CAL PDZ FP-2 inactive.
Screening CCN(CC)CCOC(=O)c1ccc(N/C=C(/C#N)c2nc(-c3cc4ccccc4oc3=O)cs2)cc1 returned CAL PDZ FP-1 inactive, CDK5 inh inactive, Dyrk1A ADPGlo inactive, dFosB activator 39, CAL PDZ FP-2 inactive and Yeast UUG start inactive.
Screening CCN(CC)CCOC(=O)c1ccc(N/C=C(/C#N)c2nc(-c3ccc4c(c3)OCO4)cs2)cc1 returned CAL PDZ FP-1 inactive, CDK5 inh inactive, Dyrk1A ADPGlo inactive, dFosB activator 93, CAL PDZ FP-2 inactive and Yeast UUG start inactive.
`CN(C)CC(=O)N[C@@H]1CC[C@H](CCNC(=O)C2CCCCC2)O[C@@H]1CO` gave Yeast UUG start inactive.
COc1ccc(S(=O)(=O)Nc2ccc3c(c2)C(=O)N([C@H](C)CO)C[C@@H](C)[C@@H](CN(C)C(=O)Nc2ccc(C(F)(F)F)cc2)OCCCC[C@@H](C)O3)cc1 was read as Yeast UUG start inactive.
Screening COCC(=O)Nc1ccc2c(c1)OC[C@H](C)N(C(=O)Cc1ccccn1)C[C@H](C)[C@H](OC)CN(C)C2=O returned Yeast UUG start inactive.
`COC(=O)c1cc2ccsc2n1Cc1cccc(F)c1` gave CAL PDZ FP-1 inactive, CDK5 inh inactive, dFosB activator inactive and CAL PDZ FP-2 79.
`O=S(=O)(Cc1ccccc1)NCC[C@@H]1CC[C@H](NS(=O)(=O)c2ccccc2)[C@@H](CO)O1` gave Yeast UUG start inactive.
Screening C[C@H]1CN([C@@H](C)CO)S(=O)(=O)c2ccc(-c3ccncc3)cc2O[C@@H]1CN(C)C(=O)C1CCCCC1 returned Yeast UUG start inactive.
`COc1ccc(S(=O)(=O)Nc2ccc3c(c2)C(=O)N([C@@H](C)CO)C[C@H](C)[C@@H](CN(C)C(=O)Nc2ccc(F)cc2)OCCCC[C@@H](C)O3)cc1` gave Yeast UUG start inactive.
`CSc1ncc(CN2CCN(C3CCCC3)C(CCO)C2)cn1` (configuration not stated) gave CAL PDZ FP-1 inactive, CDK5 inh inactive, Dyrk1A ADPGlo inactive, dFosB activator inactive and CAL PDZ FP-2 31.
`Cc1ncc(CN2CCN(C3CCCC3)C(CCO)C2)s1` (configuration not stated) gave CAL PDZ FP-1 inactive, CDK5 inh inactive, Dyrk1A ADPGlo inactive, dFosB activator inactive, CAL PDZ FP-2 82 and Yeast UUG start inactive.
Screening COc1ccc(NC(=O)N(C)C[C@@H]2Oc3ncc(-c4cccnc4)cc3C(=O)N([C@H](C)CO)C[C@@H]2C)cc1 returned Yeast UUG start inactive.
Screening Cc1sc2ncnc(N3CCC(C(=O)NNC(=O)COc4ccccc4Cl)CC3)c2c1C returned CAL PDZ FP-1 inactive, CDK5 inh inactive, Dyrk1A ADPGlo inactive and dFosB activator inactive.
Screening Cc1sc2ncnc(N3CCC(C(=O)NNC(=O)c4ccccc4Cl)CC3)c2c1C returned CAL PDZ FP-1 inactive, CDK5 inh inactive, Dyrk1A ADPGlo inactive, dFosB activator inactive, CAL PDZ FP-2 37 and Yeast UUG start inactive.
For CCNC(=O)C[C@H]1CC[C@H]2[C@@H](COc3ccc(NC(=O)c4cc(C)on4)cc3C(=O)N2C)O1 the results were Yeast UUG start inactive.
For CC(=O)N1c2ccc(S(=O)(=O)NCC3CCC(C(=O)NCc4ccc(C)cc4)CC3)cc2CC1C (configuration not stated) the results were CAL PDZ FP-1 inactive, CDK5 inh inactive, Dyrk1A ADPGlo inactive, dFosB activator inactive and Yeast UUG start inactive.
CC(=O)N1c2ccc(S(=O)(=O)N3CCC(C(=O)Nc4cc(C)ccn4)CC3)cc2CC1C (configuration not stated) was read as CAL PDZ FP-1 inactive, CDK5 inh inactive, Dyrk1A ADPGlo inactive, dFosB activator inactive, CAL PDZ FP-2 67 and Yeast UUG start inactive.
CC(=O)N1c2ccc(S(=O)(=O)N3CCCCC3)cc2CC1C(=O)NCc1ccccc1C (configuration not stated) was read as CAL PDZ FP-1 inactive, CDK5 inh inactive, Dyrk1A ADPGlo inactive, dFosB activator inactive, CAL PDZ FP-2 39 and Yeast UUG start inactive.
